# Experimental data from EP4830706A1, “COMPOSITION FOR PREVENTING OR TREATING ALZHEIMER'S DISEASE, CONTAINING NOVEL COMPOUND” (dated 2026).
# How the values were obtained:
# Tau-P301L = experiment: Tau aggregation: insoluble/soluble fractionation and Western blot in transfected HEK293 cells; details: for insoluble mutant tau fraction: HEK293 cells transfected with Tau-P301L, 5 µM, 24 hours, pellet (insoluble) fraction, FIGs. 1A and 1B
# Experimental: (§1) For SDS-PAGE, proteins were extracted from cells using RIPA buffer (50 mM Tris-Cl, pH 7.5, 150 mM NaCl, 1% NP-40, 0.1% SDS, and 10% sodium deoxycholate). Samples were separated by SDS-PAGE and transferred to a PVDF membranes. The blotted membrane was blocked with 3% skim milk containing TBST buffer for 1 h and incubated with specific antibodies. Reacted antibodies were detected by ECL and X-ray film exposure. HA (sc-7392) and GFP (green fluorescent protein; sc-8036) antibodies were purchased from Santa Cruz Biotechnology (Santa Cruz, CA, USA). Actin antibody (66009-1-lg) and α-tubulin antibody (66240-1-lg) were obtained from Proteintech (Rosemont, IL, USA). The anti-TH antibody (NB300-109) was purchased from Novus Biologicals (CO, USA). As secondary antibodies, HRP-conjugated goat anti-mouse, goat anti-rabbit, and mouse anti-goat antibodies (Pierce, Thermo Fisher Scientific, Inc., Rockford, IL, USA) were used. After incubation, cells were harvested using TNN buffer (50 mM Tris-Cl, pH 7.5, 150 mM NaCl, 0.3% NP-40) and centrifuged at 14,000 rpm for 30 minutes to separate the pellet (insoluble) and the supernatant (soluble). "Input" refers to whole cell lysates (WCL) harvested using RIPA buffer. Actin was used as a loading control.
# GFP-Tau (WT; #46904, P301L; #46908) plasmids were purchased from Addgene (Cambridge, MA, USA). Transfection was performed using Jet-PEI reagent (JetPEI; Polyplus transfection, New York, NY, USA) according to the manufacturer's protocol. Briefly, the vector was mixed with JetPEI reagent in 150 mM NaCl buffer, and the mixture was incubated for 15 minutes. The mixture was added to cells in serum-free medium for 4 h. After incubation, the cells were replaced with culture medium supplemented with 10% FBS.
# To investigate the effect of the PRG-A compound on tau aggregation (tau tangles), the inventors transfected HEK293 cells with indicator vectors (Tau-WT, Tau-P301L) and treated the cells with selected compounds (5 µM) for 24 hours. […]
# presenilin 1 (PS1) [1] = experiment: Immunofluorescence staining of PS1 inclusions in cells transfected with PS1-HA or PS1-GFP; details: PS1-HA or PS1-GFP vectors 24 hours, then 5 µM for 24 hours; FIGs. 2A and 2B
# Experimental: Cells on coverslips were washed with PBS, fixed with 4% paraformaldehyde (PFA) for 30 min at room temperature, and then permeabilized in 0.1% Triton X-100/PBS for 10 min. After treating cells with a blocking solution (3% anti-human antibody diluted 1:500 in PBS) for 1 h, cells were incubated with HA (diluted 1:500) overnight at 4°C. Finally, cells were incubated with FITC- and rhodamine-conjugated secondary antibodies for 6 h at 4°C. Nuclei were stained with 4,6-diamidino-2-phenylindole (DAPI), and endoplasmic reticulum (ER) was stained with ER-Tracker Red dye for 10 min. Cells were washed three times with PBS, and then coverslips were mounted with mounting solution (H-5501; Vector Laboratories, Burlingame, CA, USA), followed by analysis with fluorescence microscopy (Zeiss).
# It is also known that mutations in presenilin 1 (PS1) are associated with Alzheimer's disease (AD). Therefore, to examine the effect of the PRG-A compound on PS1 expression and localization, cells were transfected with PS1-HA or PS1-GFP vectors for 24 hours. After incubation, cells were treated with the PRG-A compound (5 µM) for 24 hours. Cells were fixed with 4% PFA and stained with an HA antibody (green) and ER marker (red) to monitor PS1 inclusions (white arrows, strong PS1 intensity) (FIGs. 2A and 2B). Ectopically expressed PS1 formed aggregates in the cytoplasm (FIGs. 2A and 2B). […]
# presenilin 1 (PS1) [2] = experiment: SDS-PAGE / HA antibody detection of oligomeric PS1 in PS1-HA transfected SK-N-SH cells; details: treated for 24 hours, FIG. 2C
# Experimental: as §1
# It is also known that mutations in presenilin 1 (PS1) are associated with Alzheimer's disease (AD). […]
# normal human fibroblasts = experiment: Cell viability, MTT assay; details: 48 h; for cytotoxic effects: normal human fibroblasts, FIG. 3
# Experimental: HEK293 cells were obtained from the American Type Culture Collection (ATCC, Manassas, VA, USA) and maintained in DMEM medium supplemented with 10% fetal bovine serum and 1% penicillin-streptomycin at 37°C in a humidified atmosphere with 5% CO2. SK-N-SH cells were purchased from the Korean Cell Line Bank (KCLB, Seoul, South Korea) and maintained in MEM medium supplemented with 10% fetal bovine serum, 1% antibiotics, 25 mM HEPES, and 300 mg/L L-glutamine. Human fibroblasts (person) were obtained from Coriell Cell Repositories (New Jersey, USA) and maintained in EMEM supplemented with 15% FBS, 2 mM glutamine, and 26 mM HEPES, without antibiotics.
# To investigate cell viability, cells were treated with chemicals (PRG-A compound) for 48 h. Then, the cells were incubated with 0.5 mg/ml 3-(4,5-dimethylthiazol-2-yl)-2,5-diphenyltetrazolium bromide (MTT) solution (475989; Merck, Darmstadt, Germany) at 37°C for 4 h. After removing the excess solution and washing with PBS, the precipitated substances were dissolved in 200 µl of DMSO and quantified by measuring the absorbance at 540 nm.
# Lastly, to determine the toxicity of PRG-A compounds, normal human fibroblasts and neuroblastoma cells (SK-N-SH) were cultured with each compound for 48 h, and cell viability was measured via the MTT assay. The effect on survival rates of neuronal cells and normal fibroblasts was identified (FIG. 3).
SMILES,insoluble mutant tau fraction (Tau-P301L),PS1 aggregates (IF staining) (presenilin 1 (PS1) [1]),oligomeric PS1 (presenilin 1 (PS1) [2]),cytotoxic effects (normal human fibroblasts),"impact on cell viability (normal human fibroblasts; high doses (50 and 100 µM), cell type not given)","tau aggregation (Tau-P301L; induced by overexpression of Tau-WT and Tau-MT, Fig. 1 A and B)"
COc1cc(/C=C/C(=O)O[C@H]2Cc3cc4ccc(=O)oc4cc3OC2(C)C)ccc1O,significantly reduced,reduced,reduced,did not exhibit cytotoxic effects,,
COc1cc(/C=C/CO[C@H]2Cc3cc4ccc(=O)oc4cc3OC2(C)C)ccc1[N+](=O)[O-],,,,did not exhibit cytotoxic effects,,
CC1(C)Oc2cc3oc(=O)ccc3cc2C[C@@H]1OC(=O)/C=C/c1ccc(F)cc1,,,,,low impact,
CC1(C)Oc2cc3oc(=O)ccc3cc2C[C@@H]1O,,,,,,only marginal effects
COc1cc(/C=C/CO[C@H]2Cc3cc4ccc(=O)oc4cc3OC2(C)C)ccc1O,significantly reduced,reduced,reduced,did not exhibit cytotoxic effects,,
